Earlier results in publication PMC7744439 (European journal of medicinal chemistry, 2020).

System: total HDACs
Conditions: read-out: Total HDAC (IC50); cited from earlier work

CC(/C=C/C(=O)NO)=C\[C@@H](C)C(=O)c1ccc(N(C)C)cc1 [TSA (9), reference compound]
IC50: 4 nM
